{"source": "paper PMC6195595", "about": "(2018)", "binders": {"B1": {"name": "Kj12C-^NDD (N-terminal docking domain of Kj12C) (domain or fragment)", "chain": "GIDAAQIVDEALEQGITLFVVNNRLQYETSRDSIPTELLNKWKQHKQELIDFLNQLDSEEQTK"}}, "key": {"[1]": {"target": "Kj12B-CDDshort E1567R peptide (Xenorhabdus stockiae KJ12.1, E1567R (stands in the printed letters))", "assay": "ITC"}, "[2]": {"target": "Kj12B-CDDshort E1567A peptide (Xenorhabdus stockiae KJ12.1, E1567A (stands in the printed letters))", "assay": "ITC"}}, "data": [{"binder": "B1", "values": [{"measurement": "Kd", "setting": "[1]", "value": 64, "unit": "µM"}, {"measurement": "Kd", "setting": "[2]", "value": 24, "unit": "µM"}]}]}
